The list shows a part of the results, in another mix than the full data. Activity calls are given as the source filed them. How the source made its calls: active means hit-call score of the fitted dose curve at least 0.9, where 1 is the maximum; inactive means score below 0.9.
Tests used:
[1] = CEETOX_H295R_DOC: CeeTox H295R High-throughput Steroidogenesis Assay for DOC (AID 2283439); conditions: actives raise or lower the signal
How it was run: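 11-Deoxycorticosterone quantified in medium by MTBE extraction and HPLC-MS/MS after 48 h chemical exposure (0.1% DMSO) of forskolin-primed (10 uM, 48 h) H295R cells. Same-well MTT viability; data fitted bidirectionally against DMSO.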

Chains of the proteins cited; added tags and fusions are not shown.
UniProt P49327, whole entry: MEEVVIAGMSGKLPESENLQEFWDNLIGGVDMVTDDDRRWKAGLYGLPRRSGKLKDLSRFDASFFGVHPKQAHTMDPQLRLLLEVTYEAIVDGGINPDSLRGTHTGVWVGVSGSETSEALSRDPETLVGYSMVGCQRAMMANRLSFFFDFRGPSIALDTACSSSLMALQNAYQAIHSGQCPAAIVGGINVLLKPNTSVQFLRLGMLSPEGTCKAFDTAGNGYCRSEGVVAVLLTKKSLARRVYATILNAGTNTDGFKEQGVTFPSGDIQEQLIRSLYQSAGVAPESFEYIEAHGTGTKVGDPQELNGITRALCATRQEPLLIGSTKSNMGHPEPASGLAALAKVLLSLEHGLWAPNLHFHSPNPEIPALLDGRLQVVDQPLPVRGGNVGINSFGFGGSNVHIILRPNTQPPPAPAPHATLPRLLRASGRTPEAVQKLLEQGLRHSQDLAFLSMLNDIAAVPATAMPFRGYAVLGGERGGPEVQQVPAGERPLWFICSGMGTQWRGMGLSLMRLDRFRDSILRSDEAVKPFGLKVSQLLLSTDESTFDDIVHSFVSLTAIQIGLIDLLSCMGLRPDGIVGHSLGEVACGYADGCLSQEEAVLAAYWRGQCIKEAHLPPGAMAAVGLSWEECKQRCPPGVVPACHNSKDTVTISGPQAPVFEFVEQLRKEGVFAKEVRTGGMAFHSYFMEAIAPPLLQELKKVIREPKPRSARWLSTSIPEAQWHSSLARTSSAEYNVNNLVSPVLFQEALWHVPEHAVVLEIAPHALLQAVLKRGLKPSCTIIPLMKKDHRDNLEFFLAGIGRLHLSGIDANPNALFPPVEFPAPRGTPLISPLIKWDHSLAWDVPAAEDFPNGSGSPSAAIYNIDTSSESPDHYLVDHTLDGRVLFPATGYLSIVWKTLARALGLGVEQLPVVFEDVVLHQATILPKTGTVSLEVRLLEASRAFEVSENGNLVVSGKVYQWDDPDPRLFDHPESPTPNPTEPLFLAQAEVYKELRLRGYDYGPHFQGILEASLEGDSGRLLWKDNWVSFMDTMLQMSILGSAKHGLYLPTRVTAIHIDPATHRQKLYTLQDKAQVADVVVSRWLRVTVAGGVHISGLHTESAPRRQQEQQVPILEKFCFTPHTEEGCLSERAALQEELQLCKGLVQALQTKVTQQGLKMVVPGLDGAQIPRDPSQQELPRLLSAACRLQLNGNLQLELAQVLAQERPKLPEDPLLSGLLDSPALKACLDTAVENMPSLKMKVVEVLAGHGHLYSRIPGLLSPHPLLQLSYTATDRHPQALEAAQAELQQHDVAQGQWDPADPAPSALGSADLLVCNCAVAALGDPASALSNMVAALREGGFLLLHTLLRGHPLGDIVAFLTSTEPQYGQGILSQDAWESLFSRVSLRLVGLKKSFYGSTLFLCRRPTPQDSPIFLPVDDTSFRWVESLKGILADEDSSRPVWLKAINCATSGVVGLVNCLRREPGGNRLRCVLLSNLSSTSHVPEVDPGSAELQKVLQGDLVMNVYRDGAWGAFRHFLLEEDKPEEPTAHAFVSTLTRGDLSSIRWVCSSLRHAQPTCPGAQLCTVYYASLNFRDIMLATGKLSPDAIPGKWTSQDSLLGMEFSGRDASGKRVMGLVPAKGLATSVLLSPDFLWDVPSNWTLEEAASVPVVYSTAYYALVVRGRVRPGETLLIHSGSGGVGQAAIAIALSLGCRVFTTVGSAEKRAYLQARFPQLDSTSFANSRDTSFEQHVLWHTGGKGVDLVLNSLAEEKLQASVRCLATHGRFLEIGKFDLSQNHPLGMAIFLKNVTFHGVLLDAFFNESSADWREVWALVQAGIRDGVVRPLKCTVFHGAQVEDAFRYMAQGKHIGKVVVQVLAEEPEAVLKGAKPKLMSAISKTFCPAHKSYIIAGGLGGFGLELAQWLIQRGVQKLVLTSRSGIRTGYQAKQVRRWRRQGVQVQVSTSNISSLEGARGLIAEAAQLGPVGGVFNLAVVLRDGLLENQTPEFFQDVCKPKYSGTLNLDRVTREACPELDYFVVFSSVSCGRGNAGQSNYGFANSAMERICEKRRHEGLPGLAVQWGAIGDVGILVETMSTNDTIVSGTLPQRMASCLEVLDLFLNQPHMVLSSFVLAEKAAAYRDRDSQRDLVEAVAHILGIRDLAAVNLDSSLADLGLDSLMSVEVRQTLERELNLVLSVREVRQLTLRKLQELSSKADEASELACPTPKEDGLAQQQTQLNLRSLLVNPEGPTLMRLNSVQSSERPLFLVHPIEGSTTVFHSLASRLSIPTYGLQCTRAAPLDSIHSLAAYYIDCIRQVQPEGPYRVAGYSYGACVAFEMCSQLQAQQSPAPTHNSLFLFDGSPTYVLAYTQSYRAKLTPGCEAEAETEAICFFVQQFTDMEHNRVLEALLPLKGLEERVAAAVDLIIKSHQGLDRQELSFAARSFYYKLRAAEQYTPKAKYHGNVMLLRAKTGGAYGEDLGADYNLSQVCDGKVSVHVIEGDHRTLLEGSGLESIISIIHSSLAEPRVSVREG

[2] = CEETOX_H295R_PROG: CeeTox H295R High-throughput Steroidogenesis Assay for Progesterone (PROG) (AID 2283442); conditions: actives raise or lower the signal;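 on AC50: human H295R adrenal cells primed with 10 µM forskolin before dosing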
How it was run: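 Progesterone secreted by human H295R cells was measured by LC-MS/MS following 48 h chemical exposure at 0.1% DMSO, preceded by 48 h forskolin (10 uM) stimulation. Same-well MTT viability; cytotoxic concentrations diluted 10- or 100-fold and retested.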

[3] = read-out: Tumor necrosis factor receptor superfamily member 6 (Homo sapiens) (UniProt P25445); assay: LTEA_HepaRG_FAS: Life Technologies and Expression Analysis (LTEA) Assay for Fas cell surface death receptor (FAS) using HepaRG (AID 2283447); conditions: actives raise or lower the signal; mRNA level, 48 h
How it was run: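 Differentiated HepaRG cells in serum-free induction medium were exposed 48 h to 8 half-log concentrations up to 100 uM in 0.5% DMSO, in duplicate. FAS mRNA was measured by qRT-PCR normalised to ACTB, GAPDH and POLR2A; bidirectional fit versus DMSO.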

[4] = read-out: Fatty acid synthase (Homo sapiens) (UniProt P49327); assay: LTEA_HepaRG_FASN: Life Technologies and Expression Analysis (LTEA) Assay for Fatty Acid Synthase (FASN) using HepaRG (AID 2283448); conditions: actives raise or lower the signal; mRNA level, 48 h
How it was run: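 FASN transcript measured by TaqMan qRT-PCR, normalised to three housekeeping genes, after 48 h chemical exposure of HepaRG cells. Eight-point half-log series from 100 uM in 0.5% DMSO, duplicates; gain or loss fitted against vehicle.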

[5] = read-out: Cyclin D2 (CCND2), CCND2 (gene 894); assay: LTEA_HepaRG_CCND2: Life Technologies and Expression Analysis (LTEA) Assay for Cyclin D2 (CCND2) using HepaRG (AID 2283449); conditions: actives raise or lower the signal; mRNA level, 48 h;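 further: CCND2 transcript measured by TaqMan qRT-PCR and normalised to three housekeeping genes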
How it was run: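 HepaRG, 48 h dosing, 8-pt half-log curve from 100 uM, 0.5% DMSO; duplicate wells. Readout: CCND2 transcript by microfluidic qRT-PCR, housekeeping-normalised; bidirectional fit vs DMSO baseline.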

[6] = read-out: Cyclin Dependent Kinase Inhibitor 1A (CDKN1A), CDKN1A (gene 1026); assay: LTEA_HepaRG_CDKN1A: Life Technologies and Expression Analysis (LTEA) Assay for Cyclin Dependent Kinase Inhibitor 1A (CDKN1A) using HepaRG (AID 2283450); conditions: actives raise or lower the signal; mRNA level, 48 h
How it was run: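 Expression quantified by Fluidigm qRT-PCR with ACTB, GAPDH and POLR2A normalization, fitted bidirectionally against 0.5% DMSO. Cells: HepaRG, plated 48 h then treated 48 h in serum-free induction medium, top concentration 100 uM with half-log dilutions.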

[7] = read-out: Cyclin D1 (CCND1), CCND1 (gene 595); assay: LTEA_HepaRG_CCND1: Life Technologies and Expression Analysis (LTEA) Assay for Cyclin D1 (CCND1) using HepaRG (AID 2283451); conditions: actives raise or lower the signal; mRNA level, 48 h
How it was run: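 Expression of CCND1 was quantified by qRT-PCR on Fluidigm arrays using ACTB, GAPDH and POLR2A as reference genes. HepaRG cultures, plated 48 h beforehand, were dosed for 48 h at up to 100 uM (half-log, 8 points) in 0.5% DMSO.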

[8] = read-out: catalase (CAT), CAT (gene 847); assay: LTEA_HepaRG_CAT: Life Technologies and Expression Analysis (LTEA) Assay for catalase (CAT) using HepaRG (AID 2283452); conditions: actives raise or lower the signal; mRNA level, 48 h
How it was run: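 HepaRG cells in serum-free induction medium, 0.5% DMSO vehicle, exposed 48 h in duplicate over 8 half-log concentrations from 100 uM. CAT mRNA measured by qRT-PCR, normalized to ACTB, GAPDH, POLR2A; bidirectional fit versus DMSO.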

[9] = read-out: flavin-containing dimethylaniline monooxygenases 3 (FMO3), FMO3 (gene 2328); assay: LTEA_HepaRG_FMO3: Life Technologies and Expression Analysis (LTEA) Assay for flavin-containing dimethylaniline monooxygenases 3 (FMO3) using HepaRG (AID 2283453); conditions: actives raise or lower the signal; mRNA level, 48 h
How it was run: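 FMO3 transcript quantified by TaqMan qRT-PCR against three housekeeping genes after 48 h chemical exposure of HepaRG cells. Eight-point half-log series, top 100 uM, 0.5% DMSO vehicle; phenobarbital 1mM induction control; up- or down-regulation fitted.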

[10] = read-out: Cytochrome P450 (CYP1A1), CYP1A1 (gene 1543); assay: LTEA_HepaRG_CYP1A1: Life Technologies and Expression Analysis (LTEA) Assay for Cytochrome P450 (CYP1A1) using HepaRG (AID 2283454); conditions: actives raise or lower the signal; mRNA level, 48 h
How it was run: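 CYP1A1 transcript levels measured by Fluidigm qRT-PCR against three housekeeping genes, 48 h after chemical dosing of human HepaRG cells (highest concentration 100 uM, half-log steps, 0.5% DMSO vehicle). Gain or loss of signal fitted relative to DMSO.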

[11] = read-out: CFLAR gene, CFLAR (gene 8837); assay: LTEA_HepaRG_CFLAR: Life Technologies and Expression Analysis (LTEA) Assay for CFLAR gene using HepaRG (AID 2283455); conditions: actives raise or lower the signal; mRNA level, 48 h
How it was run: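 qRT-PCR read-out (Fluidigm/TaqMan) of CFLAR mRNA, normalized to three housekeeping genes, in differentiated human HepaRG cells after 48 h chemical exposure; 8-point half-log series from 100 uM in 0.5% DMSO; bidirectional curve fitting versus DMSO.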

[12] = read-out: Forkhead box O1 (FOXO1), FOXO1 (gene 2308); assay: LTEA_HepaRG_FOXO1: Life Technologies and Expression Analysis (LTEA) Assay for Forkhead box O1 (FOXO1) using HepaRG (AID 2283456); conditions: actives raise or lower the signal; mRNA level, 48 h
How it was run: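 HepaRG, 48 h exposure, 8-pt half-log series from 100 uM in 0.5% DMSO, duplicates; Fluidigm qRT-PCR mRNA, housekeeping-normalised; bidirectional fit vs DMSO baseline.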

[13] = CEETOX_H295R_TESTO: CeeTox H295R High-throughput Steroidogenesis Assay for Testosterone (TESTO) (AID 2283457); conditions: actives raise or lower the signal
How it was run: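 Testosterone secreted into the medium over 48 h by H295R cells (maximum passage 10) was quantified by LC-MS/MS after MTBE extraction. Fitted in both directions against DMSO, with concentrations diluted until MTT viability was ≥70%.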

[14] = read-out: growth arrest and DNA damage 45 (GADD45A), GADD45A (gene 1647); assay: LTEA_HepaRG_GADD45A: Life Technologies and Expression Analysis (LTEA) Assay for growth arrest and DNA damage 45 (GADD45A) using HepaRG (AID 2283458); conditions: actives raise or lower the signal; mRNA level, 48 h
How it was run: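 GADD45A expression was measured by TaqMan qRT-PCR against three housekeeping genes (ACTB, GAPDH, POLR2A) after 48 h treatment of HepaRG cells. Eight-point half-log series up to 100 uM in 0.5% DMSO, run in duplicate.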

[15] = read-out: Forkhead box O3 (FOXO3), FOXO3 (gene 2309); assay: LTEA_HepaRG_FOXO3: Life Technologies and Expression Analysis (LTEA) Assay for Forkhead box O3 (FOXO3) using HepaRG (AID 2283459); conditions: actives raise or lower the signal; mRNA level, 48 h
How it was run: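 qRT-PCR readout of FOXO3 transcript, normalized to three housekeeping genes (ACTB, GAPDH, POLR2A); gain or loss fitted against 0.5% DMSO vehicle. HepaRG cells, 48 h chemical exposure, 8-point half-log series, top 100 uM.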

[16] = read-out: ABC Transporter (ABCB1), ABCB1 (gene 5243); assay: LTEA_HepaRG_ABCB1: Life Technologies and Expression Analysis (LTEA) Assay for ABC Transporter (ABCB1) using HepaRG (AID 2283460); conditions: actives raise or lower the signal; mRNA level, 48 h
How it was run: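 HepaRG, 48 h exposure, 8-pt half-log series from 100 uM, 0.5% DMSO vehicle, duplicates. Readout: ABCB1 transcript by Fluidigm TaqMan qRT-PCR, housekeeping-normalized; bidirectional curve fit vs DMSO baseline.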

[17] = read-out: growth arrest and DNA damage 45 (GADD45B), GADD45B (gene 4616); assay: LTEA_HepaRG_GADD45B: Life Technologies and Expression Analysis (LTEA) Assay for growth arrest and DNA damage 45 (GADD45B) using HepaRG (AID 2283461); conditions: actives raise or lower the signal; mRNA level, 48 h
How it was run: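 Transcript level quantified by Fluidigm TaqMan qRT-PCR with three housekeeping genes for normalization, analyzed for up- or down-regulation against 0.5% DMSO. HepaRG cultures dosed 48 h at eight half-log concentrations up to 100 uM, duplicates.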

[18] = read-out: ABC Transporter (ABCC3), ABCC3 (gene 8714); assay: LTEA_HepaRG_ABCC3: Life Technologies and Expression Analysis (LTEA) Assay for ABC Transporter (ABCC3) using HepaRG (AID 2283462); conditions: actives raise or lower the signal; mRNA level, 48 h
How it was run: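 Transcript level by TaqMan qRT-PCR, normalised to three housekeeping genes, fitted in both directions relative to vehicle. Chemicals tested in duplicate at eight half-log concentrations up to 100 uM for 48 h on HepaRG cells (0.5% DMSO).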

[19] = read-out: ABC Transporter (ABCB11), ABCB11 (gene 8647); assay: LTEA_HepaRG_ABCB11: Life Technologies and Expression Analysis (LTEA) Assay for ABC Transporter (ABCB11) using HepaRG (AID 2283463); conditions: actives raise or lower the signal; mRNA level, 48 h
How it was run: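 HepaRG, 48 h exposure, 8-pt half-log CRC top 100 uM, 0.5% DMSO vehicle, duplicates. Readout: TaqMan qRT-PCR of ABCB11 mRNA, housekeeping-normalized (ACTB/GAPDH/POLR2A). Bidirectional fit vs DMSO baseline.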

[20] = read-out: ABC Transporter (ABCC2), ABCC2 (gene 1244); assay: LTEA_HepaRG_ABCC2: Life Technologies and Expression Analysis (LTEA) Assay for ABC Transporter (ABCC2) using HepaRG (AID 2283464); conditions: actives raise or lower the signal; mRNA level, 48 h
How it was run: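 Endpoint is ABCC2 transcript level from qRT-PCR, normalized to three housekeeping genes and fitted bidirectionally relative to DMSO. Human HepaRG cells received test chemical for 48 h at up to 100 uM (8 points, half-log steps, 0.5% DMSO), duplicate wells.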

Cc1cccc([N+](=O)[O-])c1[N+](=O)[O-]
AC50 [1]: active: 3.29 µM | AC50 [2]: active: 3.13 µM | outcome [3]: inactive | outcome [4]: inactive | outcome [5]: inactive | outcome [6]: inactive | outcome [7]: inactive | outcome [8]: inactive | outcome [9]: inactive | AC50 [10]: active: 35.8 µM | outcome [11]: inactive | outcome [12]: inactive | outcome [13]: inactive | outcome [14]: inactive | outcome [15]: inactive | outcome [16]: inactive | outcome [17]: inactive | outcome [18]: inactive | outcome [19]: inactive | outcome [20]: inactive

Cc1ccc([N+](=O)[O-])cc1[N+](=O)[O-]
outcome [3]: inactive | outcome [4]: inactive | outcome [5]: inactive | outcome [6]: inactive | outcome [7]: inactive | outcome [8]: inactive | outcome [9]: inactive | AC50 [10]: active: 29.1 µM | outcome [11]: inactive | outcome [12]: inactive | outcome [14]: inactive | outcome [15]: inactive | outcome [16]: inactive | outcome [17]: inactive | outcome [18]: inactive | outcome [19]: inactive | outcome [20]: inactive

Cc1ccc([N+](=O)[O-])c([N+](=O)[O-])c1
outcome [1]: inactive | outcome [2]: inactive | outcome [13]: inactive

O=[N+]([O-])c1cccc([N+](=O)[O-])c1
outcome [3]: inactive | outcome [4]: inactive | outcome [6]: inactive | outcome [7]: inactive | outcome [8]: inactive | outcome [9]: inactive | AC50 [10]: active: 23.7 µM | outcome [11]: inactive | outcome [12]: inactive | outcome [14]: inactive | outcome [15]: inactive | outcome [16]: inactive | outcome [17]: inactive | outcome [18]: inactive | outcome [19]: inactive | outcome [20]: inactive

Cc1c([N+](=O)[O-])cccc1[N+](=O)[O-]
outcome [1]: inactive | outcome [2]: inactive | outcome [3]: inactive | outcome [4]: inactive | outcome [5]: inactive | outcome [6]: inactive | outcome [7]: inactive | outcome [8]: inactive | outcome [9]: inactive | outcome [10]: inactive | outcome [11]: inactive | outcome [12]: inactive | outcome [13]: inactive | outcome [14]: inactive | outcome [15]: inactive | outcome [16]: inactive | outcome [17]: inactive | outcome [18]: inactive | outcome [19]: inactive | outcome [20]: inactive

CC(C)OP(C)(=O)OC(C)C
outcome [3]: inactive | outcome [4]: inactive | outcome [5]: inactive | outcome [6]: inactive | outcome [7]: inactive | outcome [8]: inactive | outcome [9]: inactive | outcome [10]: inactive | outcome [11]: inactive | outcome [12]: inactive | outcome [14]: inactive | outcome [15]: inactive | outcome [16]: inactive | outcome [17]: inactive | outcome [18]: inactive | outcome [19]: inactive | outcome [20]: inactive

Reference: PubChem BioAssay (EPA / NIEHS)
